The list is not random: actives were taken first. Their share in the collection is about 1.7%.
GLP1R inv ag: GLP-1 receptor (human) inverse agonism; P43220; HEK293 GLP-1R CRE-luciferase, luminescence, 24 h; GLP-1R form is constitutively active; Potency, µM (top dose mostly 38.3 µM), for inactives: at the highest dose activity change, negative = inhibition, usual class: inhibitors; hit rate 1.6% among 410,000; note: potency is the fitted concentration of half-maximal effect; % is set by controls: 0 for no effect and ±100 for the full control effect; nearly all actives have a fitted effect of over 55% in size
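Inverse agonism was detected as reduced cAMP-driven luciferase luminescence after 24 h compound treatment. The cells were HEK293 clones expressing constitutively active human GLP-1R with the reporter. Reporter-only and GPR119 cell lines served as counterscreen controls.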
Pin1 inhibitor: human Pin1 inhibition; Potency, µM (highest dose often 115 µM), inactives show at the top dose activity, negative = inhibition, most hits filed as inhibitors; Q13526; Pin1 FP peptide displacement, HiFluor488, 10 min; hit rate 0.009% among 390,000; AID 504891; active = well fitted inhibition curve with a large enough effect in the polarisation, with a control signal flat, not every such curve was filed as active; inconclusive = small, poorly fitted or top-dose-only effect, or effect the other way, or a change in a side signal; inactive = no such curve, though single readings can be large or run the other way; the % refers to the polarisation; note: potency is the fitted concentration of half-maximal effect; % is set by controls: 0 for no effect and ±100 for the full control effect
PTHR1 ag: activates the human parathyroid hormone receptor PTHR1. Q03431. HEK293 GP2 PTHR1 cells, GloSensor cAMP luminescence, 1 h. hit rate 0.075% among 410,000. Potency, µM (doses to about 115 µM), for inactives: at the top dose activation, usual class: activators; note: potency is the fitted concentration of half-maximal effect; nearly all actives have a fitted effect of over 55% in size
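HEK-293-derived GP2 cells expressing PTHR1 and a GloSensor cAMP reporter, 3,000/well, plated overnight, given luciferin plus IBMX (each 0.5 mM as added) for 1 h at 37 °C, then compound for 1 h at 37 °C. Luminescence was read after 15 min at room temperature.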
miR-21 reporter: miR-21 reporter, rising signal. 340,000 tested, under 10 active. Potency, µM (highest dose often 38.3 µM), for the others: at the highest dose reporter change, positive = more light. HeLa miR-21 FLuc reporter, luciferase, 48 h. AID 2288; active = well fitted rising curve with a large enough effect; inconclusive = small, poorly fitted or top-dose-only effect; inactive = no such curve, though single readings can be large or run the other way;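 further: % of control where 0% means no effect; miR-21 action dims this reporter so a rising signal means less miR-21 action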
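HeLa cells stably expressing CMV-driven firefly luciferase with a downstream miR-21 binding sequence, endogenously expressing miR-21, were treated with titrations (up to about 40uM final) for 48 hours at 37 degree Celsius. Luciferase luminescence was read after lysis.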
GLP1R ag: activates the human GLP-1 receptor; Potency, µM (doses to about 45.6 µM), for the others: at the top dose activation, hits mostly activators; hit rate 0.007% among 380,000; P43220; AID 624172; HEK293 GLP-1R CRE-luciferase, luminescence, 4-6 h; cells express a hypersensitive GLP-1R form; note: potency is the fitted concentration of half-maximal effect; % of control where 0% means no effect
HEK293 tox: cytotoxic in the GLP-1 receptor inverse agonist counter-screen. HEK293 cAMP-luciferase reporter cells, luminescence, 24 h. Potency, µM (doses to about 38.3 µM), inactives show at the top dose activity change, negative = inhibition, actives largely listed as inhibitors. hit rate 0.13% among 410,000;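 note: loss of luciferase light is scored as toxicity; potency is the fitted concentration of half-maximal effect; % is set by controls: 0 for no effect and ±100 for the full control effect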
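MLSMR compounds, 24 hr on cells at 37 deg C/5% CO2; luminescence after luciferase reagent (12 min RT). Inhibition counted as the undesired cytotoxic outcome.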
* = called active by the depositor; i = inactive; u = inconclusive; x = not tested or not shown; [ ] = remark or other dose. Unless noted, calls come from the whole dose curve; as a rule, active = well fitted curve in the direction sought with a large enough effect; inconclusive = small, poorly fitted or top-dose-only effect, or another doubt; inactive = no such curve, though single readings can be large; an effect the other way counts as inactive or inconclusive.

Start of the data: the first four compounds, to show the layout:
| nr | Structure | GLP1R inv ag | Pin1 inhibitor | PTHR1 ag |
| --- | --- | --- | --- | --- |
| 1 | Cc1ccc(S(=O)(=O)c2ccc(Oc3cccc(C)c3)cc2)cc1 | 10µM* | 8% | i |
| 2 | Nc1cc(S(=O)(=O)N2CCCCC2)ccc1Oc1ccc(Cl)cc1 | u | -3% | -28% |
| 3 | Cc1ccccc1NC(=O)CSc1nc2nccnc2c(=O)n1CCc1c[nH]c2ccccc12 | -27% | 5% | -36% |
| 4 | CN1CCC(N(C)C(=O)c2ccc(Cl)c(S(=O)(=O)N(C)c3ccc(Cl)cc3)c2)CC1 | 11µM* | -2% | -3% |

| nr | miR-21 reporter | GLP1R ag | HEK293 tox |
| --- | --- | --- | --- |
| 1 | -2% | -4% | -3% |
| 2 | 20% | 0% | 0% |
| 3 | -2% | x | -18% |
| 4 | x | -1% | -14% |

The whole of this part, from the first entry:
| nr | Structure | GLP1R inv ag | Pin1 inhibitor | PTHR1 ag |
| --- | --- | --- | --- | --- |
| 1 | Cc1ccc(S(=O)(=O)c2ccc(Oc3cccc(C)c3)cc2)cc1 | 10µM* | 8% | i |
| 2 | Nc1cc(S(=O)(=O)N2CCCCC2)ccc1Oc1ccc(Cl)cc1 | u | -3% | -28% |
| 3 | Cc1ccccc1NC(=O)CSc1nc2nccnc2c(=O)n1CCc1c[nH]c2ccccc12 | -27% | 5% | -36% |
| 4 | CN1CCC(N(C)C(=O)c2ccc(Cl)c(S(=O)(=O)N(C)c3ccc(Cl)cc3)c2)CC1 | 11µM* | -2% | -3% |
| 5 | O=[S+]([O-])(c1ccc2ncsc2c1)N1CCN([S+](=O)([O-])c2c(F)cccc2F)CC1 | x | 1% | x |
| 6 | CCC1CCCCN1CCCNC(=O)C(C)n1nc(C)c2sc3ccccc3c2c1=O (stereo not given) | 7.9µM* | -8% | i |
| 7 | Cc1nn(C(C)C(=O)NCCCN2CCCCC2C)c(=O)c2c1sc1ccccc12 (stereo not given) | -12% | -6% | i |
| 8 | COc1ccccc1CNc1ncnc2c1c(-c1ccccc1)cn2-c1ccc(Br)cc1 | u | 16% | i |
| 9 | CO[C@H](C(=O)[C@@H](O)[C@@H](C)O)C1Cc2cc3cc(O[C@H]4C[C@@H](O[C@H]5C[C@@H](O)[C@H](O)[C@@H](C)O5)[C@@H](O)[C@@H](C)O4)c(C)c(O)c3c(O)c2C(=O)[C@H]1O[C@H]1C[C@@H](O[C@H]2C[C@@H](O[C@H]3C[C@](C)(O)[C@H](O)[C@@H](C)O3)[C@H](O)[C@@H](C)O2)[C@H](O)[C@@H](C)O1 (stereo not given in full) | x | x | x |
| 10 | COc1ccc(OC)c(-c2nnc3n2N=C(c2ccc(OC)c(OC)c2)CS3)c1 | x | -3% | 6% |
| 11 | COc1ccc(C2=Nn3c(nnc3C3CCCCC3)SC2)cc1OC | 105% | u | i |
| 12 | COc1ccc(C2=Nn3c(nnc3-c3ccccc3OC)SC2)cc1OCC1CC1 | x | 5% | -97% |
| 13 | CCOc1ccc(C2=Nn3c(nnc3-c3ccc(OC)cc3)SC2)cc1 | 0% | u | i |
| 14 | CCOc1ccccc1-c1nnc2n1N=C(c1ccc(OC)c(OC)c1)CS2 | x | -1% | x |
| 15 | Cc1cccc(CCNC(=O)c2ccc(CSCc3cccc(Cl)c3)o2)c1 | u | 13% | i |

| nr | miR-21 reporter | GLP1R ag | HEK293 tox |
| --- | --- | --- | --- |
| 1 | -2% | -4% | -3% |
| 2 | 20% | 0% | 0% |
| 3 | -2% | x | -18% |
| 4 | x | -1% | -14% |
| 5 | x | x | x |
| 6 | -5% | -6% | u |
| 7 | -5% | 9% | 0% |
| 8 | -2% | x | -11% |
| 9 | x | -1% | x |
| 10 | x | 2.2µM* | x |
| 11 | 13% | 3.2µM* | 2% |
| 12 | x | 4µM* | x |
| 13 | 16% | 10µM* | -18% |
| 14 | x | x | x |
| 15 | 5% | x | -15% |

(listing goes on)
| nr | Structure | GLP1R inv ag | Pin1 inhibitor | PTHR1 ag |
| --- | --- | --- | --- | --- |
| 16 | COc1cccc(CN2C(=O)c3ccccc3NC2c2ccc(OC)c(COc3ccc(NC(C)=O)cc3)c2)c1 (stereo not given) | x | 6% | x |
| 17 | COc1ccc(-c2nn3c(C4CCCCC4)nnc3s2)cc1OC | 0% | u | 28% |
| 18 | COc1cc(-c2nn3c(C4CCCCC4)nnc3s2)cc(OC)c1OC | 41% | -3% | -5%[57.5 µM] |
| 19 | CC(C)OCCCNC(=O)CN1C(=O)COc2ccc(S(=O)(=O)N3CCOCC3)cc21 | -10% | 5% | -21% |
| 20 | CS(=O)(=O)c1ccc(C(=O)OCC(=O)NCC2CCCO2)cc1[N+](=O)[O-] (stereo not given) | x | 11% | x |
| 21 | Cc1cc(OCCN2CC(C)OC(C)C2)ccc1[N+](=O)[O-] (stereo not given) | -2% | -13% | -15% |
| 22 | Cc1cc(OCCN2CCC(Cc3ccccc3)CC2)ccc1[N+](=O)[O-] | 11µM* | -20% | -35% |
| 23 | CCc1ccc(Nc2n[n+](-c3ccccc3)c(-c3c(Cl)cccc3Cl)s2)cc1 | u | -4% | -39% |
| 24 | COc1ccc(-c2sc(Nc3ccccc3)n[n+]2-c2ccc(F)cc2)cc1Br | -6% | 0% | 24% |
| 25 | COc1ccc2ccccc2c1-c1sc(Nc2ccccc2)n[n+]1-c1ccc(F)cc1 | u | -3% | -26% |
| 26 | COc1cccc(C2c3c(ncn(-c4ccccc4C(C)(C)C)c3=N)Oc3ccc4ccccc4c32)c1 (stereo not given) | x | 20% | x |
| 27 | CCCN(CCC)CCCNC(=O)c1cc2c(-c3ccc(Cl)cc3)nn(C)c2s1 | -9% | u | u |
| 28 | CCN(CC)CCCNC(=O)c1cc(-c2ccc(Cl)c(Cl)c2)on1 | 5.6µM* | -3% | -4% |
| 29 | CCN(CC)CCCNC(=O)c1cc2c(-c3ccc(Cl)cc3)nn(C)c2s1 | 3.5µM* | 0% | -20% |
| 30 | Cc1nc(CC(=O)Nc2ccc(C(N)=O)cc2)cs1 | 11% | 10% | -13% |

| nr | miR-21 reporter | GLP1R ag | HEK293 tox |
| --- | --- | --- | --- |
| 16 | x | x | x |
| 17 | -32% | 2.5µM* | -7% |
| 18 | -8% | 2% | 17% |
| 19 | -2% | 0% | 5% |
| 20 | x | x | x |
| 21 | -14% | 7% | -11% |
| 22 | 0% | -5% | u |
| 23 | u | 1% | 7.9µM* |
| 24 | 3% | 5% | 0% |
| 25 | u | -2% | 5µM* |
| 26 | x | x | x |
| 27 | u | x | 2% |
| 28 | 22% | -14% | u |
| 29 | u | -7% | u |
| 30 | 4% | x | -7% |

Next section:
| nr | Structure | GLP1R inv ag | Pin1 inhibitor | PTHR1 ag |
| --- | --- | --- | --- | --- |
| 31 | Cc1cc2c(s1)c1cnn(Cc3ccc(OC(F)F)cc3)c(=O)c1n2C | x | -1% | x |
| 32 | CCN(c1ccccc1)S(=O)(=O)c1ccc(OC)c(NC(=O)Cc2ccccc2OC)c1 | 10µM* | 17% | -17% |
| 33 | CCN(c1ccccc1)S(=O)(=O)c1ccc(OC)c(NC(=O)Cc2ccc(OC)c(OC)c2)c1 | -23% | 19% | -1% |
| 34 | CCN1CCN(CC(=O)Nc2cc(S(=O)(=O)N(CC)c3ccccc3)ccc2Cl)CC1 | 10µM* | 2% | -24% |
| 35 | O=C(OCC#CCSc1nnc(-c2cc3ccccc3cc2O)o1)c1ccc(F)cc1 | x | -1% | x |
| 36 | COc1cc(F)c(S(=O)(=O)N2CCN(S(=O)(=O)c3ccco3)CC2)c(F)c1 | x | 53% | x |
| 37 | CN1[C@@H]2CC[C@@H]1CC(OC(=O)[C@H](CO)c1ccccc1)C2 (stereo not given in full) | x | x | x |
| 38 | Cc1ccc(C(C)C)c(OCCNC(=O)c2cncc(Br)c2)c1 | 10µM* | u | -46%[57.5 µM] |
| 39 | COc1cc(C(=O)NCCOc2cc(C)ccc2C(C)C)cc(OC)c1OC | 3.5µM* | -4% | -32% |
| 40 | COc1cc(C(=O)NCCOc2cc(C)cc(C)c2)cc(OC)c1OC | u | 0% | i |
| 41 | Cc1ccc(-c2nnc(SCC(=O)c3ccc(Cl)cc3)n2-c2ccccc2)cc1 | 5% | 9% | -18% |
| 42 | CCN(CC(=O)NCc1ccc(Cl)cc1)C(=O)c1cnc(Cl)c(Cl)c1 | u | -1% | -14% |
| 43 | CCN(CC(=O)NCc1ccc(Cl)cc1)C(=O)COc1ccc(Cl)cc1Br | 11µM* | -2% | i |

| nr | miR-21 reporter | GLP1R ag | HEK293 tox |
| --- | --- | --- | --- |
| 31 | x | x | x |
| 32 | x | 4% | -12% |
| 33 | x | -2% | 2% |
| 34 | x | 8% | u |
| 35 | x | x | x |
| 36 | x | x | x |
| 37 | x | 7% | x |
| 38 | 10% | -3% | 26% |
| 39 | 22% | 26% | -12% |
| 40 | 18% | 6% | -15% |
| 41 | 2% | x | 1% |
| 42 | 2% | 9% | 5% |
| 43 | x | -2% | -3% |

From PubChem BioAssay
